Source: patent US8053553B2, “Targeting host proteinases as a therapeutic strategy against viral and bacterial pathogens” (Socpra Sciences Sante Et Humaines, priority 2007, dated 2011)
Read-outs that look alike come from different tables or passages of the source.

Protein sequences, listed by entry. Tags and fused reporters are not part of them. Residues count along the entry.
UniProt P09958, 108-794 limits assumed: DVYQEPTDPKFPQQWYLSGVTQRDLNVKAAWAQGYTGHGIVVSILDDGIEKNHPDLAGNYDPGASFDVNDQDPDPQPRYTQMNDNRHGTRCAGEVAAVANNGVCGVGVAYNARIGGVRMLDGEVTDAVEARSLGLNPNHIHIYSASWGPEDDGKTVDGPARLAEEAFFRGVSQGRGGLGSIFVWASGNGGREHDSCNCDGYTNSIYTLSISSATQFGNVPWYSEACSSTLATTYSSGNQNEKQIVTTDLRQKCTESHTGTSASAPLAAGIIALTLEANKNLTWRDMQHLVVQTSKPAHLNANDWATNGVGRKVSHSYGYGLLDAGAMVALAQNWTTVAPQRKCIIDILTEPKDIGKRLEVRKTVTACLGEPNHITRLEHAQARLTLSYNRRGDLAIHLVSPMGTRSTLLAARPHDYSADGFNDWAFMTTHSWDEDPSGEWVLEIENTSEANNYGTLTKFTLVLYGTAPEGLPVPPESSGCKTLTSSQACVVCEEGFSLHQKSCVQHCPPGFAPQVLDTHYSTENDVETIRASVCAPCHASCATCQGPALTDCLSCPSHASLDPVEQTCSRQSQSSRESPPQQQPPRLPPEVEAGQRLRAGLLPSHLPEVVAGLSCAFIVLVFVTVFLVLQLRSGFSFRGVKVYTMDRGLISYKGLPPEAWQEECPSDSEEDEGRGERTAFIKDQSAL

Target: T1, furin (Homo sapiens, UniProt P09958)
T1 construct: made in house; host or cells: Drosophila S2 cells (Invitrogen expression system)
Assay: biochemical

[1] = furin, Pyr-RTKR-AMC substrate, optimization of the inhibitory peptides (Table 3)

| SMILES | Ki | Ki [1] |
| --- | --- | --- |
| CSC[C@H](NC(=O)[C@H](CCCNC(=N)N)NC(=O)[C@H](CCCCN)NC(=O)[C@H](CCCCN)NC(=O)[C@H](CCCNC(=N)N)NC(=O)[C@H](CCCNC(=N)N)NC(=O)[C@H](CCCNC(=N)N)NC(=O)[C@H](C)NC(=O)[C@H](CCCNC(=N)N)NC(=O)[C@@H]1CCCN1C(=O)[C@@H](N)[C@@H](C)O)C(N)=O | 65 nM | – |
| CCCC[C@H](NC(=O)[C@H](CCCNC(=N)N)NC(=O)[C@H](CCCCN)NC(=O)[C@H](CCCCN)NC(=O)[C@H](CCCNC(=N)N)NC(=O)[C@H](CCCNC(=N)N)NC(=O)[C@H](CCCNC(=N)N)NC(=O)[C@H](C)NC(=O)[C@H](CCCNC(=N)N)NC(=O)[C@@H]1CCCN1C(=O)[C@@H](N)[C@@H](C)O)C(N)=O | 81 nM | – |
| C[C@@H](O)[C@H](N)C(=O)N1CCC[C@H]1C(=O)N[C@@H](CCC(N)=O)C(=O)N[C@@H](CCCNC(=N)N)C(=O)N[C@@H](CCCNC(N)=O)C(=O)N[C@@H](CCCNC(=N)N)C(=O)N[C@@H](CCCNC(=N)N)C(=O)N[C@@H](CCCNC(=N)N)C(=O)N[C@@H](CCCCN)C(=O)N[C@@H](CCCCN)C(=O)N[C@@H](CCCNC(N)=O)C(=O)NCC(N)=O [TPQR4RRRKK4G] | – | > 100 nM |
| CSC[C@H](NC(=O)[C@H](CCCNC(=N)N)NC(=O)[C@H](CCC(N)=O)NC(=O)[C@@H]1CCCN1C(=O)[C@@H](N)[C@@H](C)O)C(=O)N[C@@H](CCCNC(=N)N)C(=O)N[C@@H](CCCNC(=N)N)C(=O)N[C@@H](CCCNC(=N)N)C(=O)N[C@@H](CCCCN)C(=O)N[C@@H](CCCCN)C(=O)N[C@@H](CCCNC(=N)N)C(=O)NCC(N)=O [TPQR5RRRKKRG] | – | > 100 nM |
| CCCC[C@H](NC(=O)[C@H](CCCNC(=N)N)NC(=O)[C@H](CCC(N)=O)NC(=O)[C@@H]1CCCN1C(=O)[C@@H](N)[C@@H](C)O)C(=O)N[C@@H](CCCNC(=N)N)C(=O)N[C@@H](CCCNC(=N)N)C(=O)N[C@@H](CCCNC(=N)N)C(=O)N[C@@H](CCCCN)C(=O)N[C@@H](CCCCN)C(=O)N[C@@H](CCCNC(=N)N)C(=O)NCC(N)=O [TPQR6RRRKKRG] | – | > 100 nM |
